Results: ChEMBL document CHEMBL3774368, “1,2,4-Triazolyl octahydropyrrolo[2,3-b]pyrroles: A new series of potent and selective dopamine D3 receptor antagonists” (Bioorg Med Chem, 2016)

By UniProt entry, the sequences of proteins in these tests, tags left out. Where a name states a change or a piece, a line headed by the entry shows the natural chain unless it says otherwise.
UniProt P35462, whole entry: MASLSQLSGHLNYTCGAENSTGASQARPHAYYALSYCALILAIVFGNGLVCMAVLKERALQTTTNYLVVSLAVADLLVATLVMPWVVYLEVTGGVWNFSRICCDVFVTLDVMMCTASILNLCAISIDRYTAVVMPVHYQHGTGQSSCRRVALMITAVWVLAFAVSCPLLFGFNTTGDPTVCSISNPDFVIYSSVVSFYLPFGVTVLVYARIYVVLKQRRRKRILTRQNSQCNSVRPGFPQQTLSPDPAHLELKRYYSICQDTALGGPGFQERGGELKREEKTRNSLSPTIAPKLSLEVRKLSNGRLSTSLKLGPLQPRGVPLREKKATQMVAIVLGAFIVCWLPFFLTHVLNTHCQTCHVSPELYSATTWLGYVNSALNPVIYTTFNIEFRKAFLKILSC
UniProt P14416, whole entry: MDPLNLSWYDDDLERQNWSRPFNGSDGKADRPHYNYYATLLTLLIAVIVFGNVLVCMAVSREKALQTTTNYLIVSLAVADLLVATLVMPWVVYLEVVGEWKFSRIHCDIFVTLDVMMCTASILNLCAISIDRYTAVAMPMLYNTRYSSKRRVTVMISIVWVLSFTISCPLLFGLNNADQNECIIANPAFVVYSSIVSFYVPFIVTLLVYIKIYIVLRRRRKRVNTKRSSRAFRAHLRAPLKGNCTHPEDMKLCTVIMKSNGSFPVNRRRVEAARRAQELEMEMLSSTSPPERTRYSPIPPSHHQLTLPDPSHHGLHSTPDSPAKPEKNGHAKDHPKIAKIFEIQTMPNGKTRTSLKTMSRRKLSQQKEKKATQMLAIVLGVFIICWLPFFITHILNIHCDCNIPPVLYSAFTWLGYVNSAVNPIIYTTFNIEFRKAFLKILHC
UniProt Q12809: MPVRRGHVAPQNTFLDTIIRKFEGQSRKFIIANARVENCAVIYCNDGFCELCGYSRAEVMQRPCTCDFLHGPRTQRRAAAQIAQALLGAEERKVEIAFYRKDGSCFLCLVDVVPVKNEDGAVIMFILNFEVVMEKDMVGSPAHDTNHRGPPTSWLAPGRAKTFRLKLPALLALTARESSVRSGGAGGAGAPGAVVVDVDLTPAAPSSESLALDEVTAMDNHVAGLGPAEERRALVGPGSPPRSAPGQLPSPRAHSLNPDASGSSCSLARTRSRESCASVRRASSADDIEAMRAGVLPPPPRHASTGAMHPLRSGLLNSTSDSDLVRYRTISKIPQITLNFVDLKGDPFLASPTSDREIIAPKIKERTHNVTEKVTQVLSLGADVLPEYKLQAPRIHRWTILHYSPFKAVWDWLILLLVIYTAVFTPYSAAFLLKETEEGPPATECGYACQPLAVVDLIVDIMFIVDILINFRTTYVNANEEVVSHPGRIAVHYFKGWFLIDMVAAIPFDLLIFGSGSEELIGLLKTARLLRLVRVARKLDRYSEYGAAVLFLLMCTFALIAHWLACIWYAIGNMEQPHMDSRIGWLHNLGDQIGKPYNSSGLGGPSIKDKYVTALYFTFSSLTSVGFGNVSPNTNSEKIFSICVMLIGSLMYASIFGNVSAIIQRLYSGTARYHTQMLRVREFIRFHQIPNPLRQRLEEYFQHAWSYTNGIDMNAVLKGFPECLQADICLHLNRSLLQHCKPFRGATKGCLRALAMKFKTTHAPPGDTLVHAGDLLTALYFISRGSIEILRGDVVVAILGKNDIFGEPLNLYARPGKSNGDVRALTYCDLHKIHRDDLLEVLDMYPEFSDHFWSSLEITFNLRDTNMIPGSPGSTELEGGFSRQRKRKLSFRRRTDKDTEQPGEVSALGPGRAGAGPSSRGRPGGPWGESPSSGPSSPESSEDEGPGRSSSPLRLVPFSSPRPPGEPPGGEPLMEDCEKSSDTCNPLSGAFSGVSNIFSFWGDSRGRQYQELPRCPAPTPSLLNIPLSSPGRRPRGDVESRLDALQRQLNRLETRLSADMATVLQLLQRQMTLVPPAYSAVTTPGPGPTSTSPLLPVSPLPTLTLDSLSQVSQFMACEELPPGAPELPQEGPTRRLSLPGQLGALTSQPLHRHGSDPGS

Assays:
[1] = molecular target: T1, D(3) dopamine receptor (Homo sapiens, UniProt P35462); test: Displacement of [3H]-spiperone from human dopamine D3 receptor expressed in CHO-K1 cell membranes after 90 mins by liquid scintillation counter method
[2] = molecular target: D(2) dopamine receptor (Homo sapiens, UniProt P14416); test: Displacement of [3H]-spiperone from human dopamine D2 receptor expressed in CHO-K1 cell membranes after 120 mins by liquid scintillation counter method
[3] = molecular target: Voltage-gated inwardly rectifying potassium channel KCNH2 (Homo sapiens, UniProt Q12809); test: Inhibition of human ERG tail current expressed in HEK293 cells after 5 mins by patch clamp assay
[4] = molecular target: T1, D(3) dopamine receptor; test: Antagonist activity at human dopamine D3 receptor expressed in CHO-K1 cell membranes after 90 mins by [35S]GTP-gamma-S binding assay in presence of 3 nM quinelorane

Compound	Ki [1] [µM]	Ki [2] [µM]	also measured
Cn1c(SCCCN2CC3CCN(c4ccc(F)cc4)C3C2)nnc1C1CCOCC1 (stereo in doubt; 63a)	0.000398		
Cn1c(SCCCN2CC3CCN(c4ccccc4)C3C2)nnc1C1CCOCC1 (stereo in doubt; 62b)		0.2	
Cn1c(SCCCN2CC3CCN(c4cccc(OC(F)(F)F)c4)C3C2)nnc1-c1cnccn1 (racemic)		0.1	
Cn1c(SCCCN2CC3CCN(c4ccc(F)cc4)C3C2)nnc1C1CCOCC1 (stereo in doubt; 63b)	0.000398		
COc1cccc(N2CCC3CN(CCCSc4nnc(-c5cnccn5)n4C)CC32)c1 (racemic)		0.398	
Cn1c(SCCCN2CC3CCN(c4ccccc4)C3C2)nnc1C1CCOCC1 (stereo in doubt; 62a)		0.794	
Cn1cc(-c2nnc(SCCCN3CC4CCN(c5ccc(C(F)(F)F)cc5)C4C3)n2C)cn1 (racemic)	0.00316		
Cc1ncoc1-c1nnc(SCCCN2CC3CCN(c4ccc(F)cc4)C3C2)n1C (stereo in doubt; 9b)			IC50 [3]: 0.794 µM
Cc1ncoc1-c1nnc(SCCCN2CC3CCN(c4ccccc4)C3C2)n1C (stereo in doubt; 6b)			Ki [4]: 0.002 µM
Cn1c(SCCCN2CC3CCN(c4ccccc4)C3C2)nnc1C1CCOCC1 (racemic)		0.251	
Cn1c(SCCCN2CC3CCN(c4ccc(C(F)(F)F)cc4)C3C2)nnc1-c1nccs1 (racemic)	0.002		
Cn1c(SCCCN2CC3CCN(c4ccc(F)cc4)C3C2)nnc1C1CCOCC1 (racemic)	0.000316		
Cc1ncoc1-c1nnc(SCCCN2CC3CCN(c4ccc(OC(F)(F)F)cc4)C3C2)n1C (racemic)	0.0126		
Cn1c(SCCCN2CC3CCN(c4ccc(F)cc4)C3C2)nnc1-c1cc[nH]c(=O)c1 (racemic)	0.01		
Cn1c(SCCCN2CC3CCN(c4ccc(C(F)(F)F)cc4)C3C2)nnc1-c1cccnc1 (racemic)		0.794	
